From patent US20150024050A1

Experiments:
Assay in all cases: cell-based or functional assay
[1] = target: plant-expressed recombinant human DNase I (human) (UniProt P24855)
[2] = target: Pulmozyme (dornase alfa), mammalian (CHO) cell expressed recombinant human DNase I (human) (UniProt P24855)
[3] = target: plant-expressed recombinant human DNase I (human) (UniProt P24855); remark: listed apart in the source
[4] = target: Pulmozyme (dornase alfa), mammalian (CHO) cell expressed recombinant human DNase I (human) (UniProt P24855); remark: listed apart in the source

An IC50 (µg/ml) of actin for inhibition of DNase I catalytic activity, DNA-methyl green assay; row Prh DNase I [1] of 1.82 µg/mL, an IC50 (µg/ml) of actin for inhibition of DNase I catalytic activity, DNA-methyl green assay; row Pulmozyme [2] of 0.687 µg/mL and an IC50 (µg/ml) of actin for inhibition of DNase I catalytic activity, DNA-methyl green assay; row Prh DNase I batch 1 [3] of 1.71 µg/mL were found for “human non-muscle actin (Cytoskeleton; cat No. APHL99) (from UniProt P60709 2-375)” in this work. It also gave an IC50 (µg/ml) of actin for inhibition of DNase I catalytic activity, DNA-methyl green assay; row Prh DNase I batch 2 [3] of 1.85 µg/mL and an IC50 (µg/ml) of actin for inhibition of DNase I catalytic activity, DNA-methyl green assay; row Pulmozyme [4] of 0.546 µg/mL.

Like-named read-outs stand apart in the source and are kept apart here.
